Assay outcomes from PubChem.
p-CIP stab down = p/CIP-EGFP fusion destabilizers, primary screen, fluorescence, F442A cells. 16 h. decrease of EGFP signal, % at 10 µM. actives 0.01% (n = 290,000);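 active = EGFP signal decrease of at least 30% at 10 µM or well 3 SD below plate mean, unless failing retest; inactive = the rest, including hits failing retest or dose response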
Exocytosis inh = LAMP-1 surface exposure blockers, TALL-104 cells – cell-based, flow cytometry, MLPCN library, primary screen; actives 0.66% (n = 360,000); inhibition, % at 10 µM; TALL-104 LAMP-1 surface exposure; cells stimulated with thapsigargin and PMA;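 active = inhibition above about 55%, limit read from the data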
ABCB6 inh 2 = ABCB6 transporter inhibitors, primary screen, K562-ABCB6 cells, flow cytometry, MLPCN library; ATP-binding cassette sub-family B member 6 (Homo sapiens), Q9NP58; K562-ABCB6 porphyrin accumulation, 1 h; active compounds read low; fluorescence ratio to DMSO, % at 10 µM; actives 0.19% (n = 360,000); AID 602162, 2011;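 active = fluorescence ratio to DMSO below 75%, the collection mean minus 3 SD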;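 note: signal is porphyrin accumulated inside mitochondria; lower ratio means ABCB6 inhibition with less porphyrin fluorescence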
PKA-R2B act = activators of PKA-R2B holoenzyme, primary screen, biochemical, fluorescence polarization, Cy5-IP20, human. PKA-R2B holoenzyme dissociation; R2B truncated from residue 108, S112A mutant; 0% DMSO only, 100% 113 µM cGMP. cAMP-dependent protein kinase catalytic subunit beta (Homo sapiens) + cAMP-dependent …. activation, % at 11.4 µM. actives 0.079% (n = 340,000). AID 504700, 2011;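 active = activation above a cutoff set at the mean over all compounds plus 3 SD, cut at about 18% in these data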;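 note: higher means more holoenzyme dissociation and a rise in polarization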
PKA-R1A act = activators of PKA-R1A holoenzyme, primary screen, biochemical, fluorescence polarization, Cy5-IP20, bovine R1A, mouse PKAc. cAMP-dependent protein kinase type I-alpha regulatory subunit (Bos taurus) + …. PKA-R1A dissociation; scaled: DMSO 0%, 113 µM cGMP 100%. actives 0.083% (n = 340,000). AID 504707, 2011. activation, % at 11.4 µM;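 active = percent activation above the mean of all tested compounds plus 3 SD, cut at about 19% in these data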;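 note: higher means more PKAc released from R1A so a rise in polarization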
Yeast UUG start = modulators of start codon recognition fidelity in yeast. S. cerevisiae UUG-firefly luciferase reporter, luminescence/redox ratio. activity score, % at 18.7 µM. 350,000 tested, 0.13% active;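 active = replicate mean at a twofold rise or more, about +100% in these data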;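 note: firefly luciferase made from a UUG start codon reports start codon fidelity; reporter light over untreated wells divided by growth signal over untreated wells; some hits fall short of that in this replicate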
R1A FP artifact = FP signal interference without PKA proteins, confirmation, artefact control for PKA-R1A activator project, biochemical, fluorescence polarization, triplicate | shares compounds with PKA-R1A act | Cy5-IP20 peptide alone, fluorescence polarization artifact counterscreen | activation, % at 11.4 µM | actives 7% (n = 280) | AID 504799, 2011;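 active = mean activation over triplicate runs exceeds the adjusted cutoff derived for the parent primary screen, cut at about 19% in these data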;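 note: no PKA protein present so any polarization rise reflects compound interference; higher means stronger polarization artifact and likely false positive in parent screen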
PKA-R1A act conf = activators of PKA-R1A holoenzyme, confirmation, biochemical, fluorescence polarization, Cy5-IP20, triplicate; shares compounds with PKA-R1A act; PKA-R1A holoenzyme dissociation; activation, % at 11.4 µM; actives 9% (n = 280);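 active = mean activation over replicate wells exceeds the adjusted hit threshold taken from the earlier primary screen, cut at about 20% in these data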
ABCB6 inh CP1 = ABCB6 transporter inhibitors, confirmation, K562-ABCB6 cells, flow cytometry, cherry pick 1; shares compounds with ABCB6 inh 2; K562-ABCB6 porphyrin accumulation, 1 h; active compounds read low; ratio response (% of DMSO), % at 10 µM; 700 tested, under 10 active;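 active = repeat-averaged ratio response below 75% of DMSO, the collection mean minus 3 SD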;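 note: median porphyrin fluorescence at 575 nm with 488 nm excitation from mitochondria; lower ratio means less porphyrin signal so ABCB6 inhibition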
Each line names hits and unclear results; the compound was inactive in the other large screens (follow-up assays come after a bar, where they were run). Most compounds without a hit are left out; they make up all but 0.94% or so of the library.

Cc1noc(C)c1NC(=O)N(C)C[C@H]1Oc2ccc(NC(=O)Nc3ccc4c(c3)OCO4)cc2CC(=O)N([C@H](C)CO)C[C@@H]1C	none (no result: p-CIP stab down, Exocytosis inh, ABCB6 inh 2, PKA-R2B act, PKA-R1A act)
CSCC[C@H](NC(=O)c1nn(C)c(=O)c2ccccc12)c1nc2ccccc2[nH]1	PKA-R1A act 20 | R1A FP artifact inactive | PKA-R1A act conf inactive
Cc1cccc(NC(=O)c2sc(C)nc2C)c1	PKA-R1A act 19 | R1A FP artifact inactive | PKA-R1A act conf inactive
CCCCS(=O)(=O)N1CCCC(C(=O)NCCc2ccccc2)C1 (stereo not drawn)	none
CCCCS(=O)(=O)N1CCCC(C(=O)Nc2ccc3c(c2)CCC3)C1 (stereo not drawn)	PKA-R1A act 19 | R1A FP artifact inactive | PKA-R1A act conf inactive
CCN(CC(=O)Nc1ccccc1OC)C(=O)CSCc1ccc(C)cc1	PKA-R1A act 22 (no result: p-CIP stab down) | R1A FP artifact inactive | PKA-R1A act conf inactive
CCC(=O)N1C[C@H](C)[C@@H](OC)CN(C)C(=O)c2ccc(NC(=O)Nc3cccc(F)c3)cc2OC[C@H]1C	none (no result: p-CIP stab down, Exocytosis inh, ABCB6 inh 2, PKA-R2B act, PKA-R1A act)
COc1ccccc1Oc1coc2cc(OCC(N)=O)ccc2c1=O	PKA-R1A act 19 | R1A FP artifact inactive | PKA-R1A act conf inactive
CCCNC(=O)COc1ccc2c(=O)c(Oc3ccccc3F)coc2c1	none (no result: Yeast UUG start)
COCC#Cc1ccc2c(c1)O[C@H](CN(C)C(=O)Nc1ccc(OC)cc1)[C@H](C)CN([C@H](C)CO)S2(=O)=O	none (no result: p-CIP stab down, Exocytosis inh, ABCB6 inh 2, PKA-R2B act, PKA-R1A act)
COc1ccc(C(=O)Nc2c3c(nn2-c2ccc([N+](=O)[O-])cc2)CS(=O)(=O)C3)cc1	none
COc1ccc(C(=O)Nc2c3c(nn2-c2ccc(Cl)cc2)CS(=O)(=O)C3)cc1	PKA-R1A act 20 | R1A FP artifact inactive | PKA-R1A act conf inactive
Cc1noc(C)c1NC(=O)N[C@@H]1CC[C@H](CCNC(=O)C2CCCCC2)O[C@H]1CO	none (no result: p-CIP stab down, Exocytosis inh, ABCB6 inh 2, PKA-R2B act, PKA-R1A act)
O=C(/C=C/c1ccccc1)Nc1cccc(C(=O)NC2CC2)c1	PKA-R1A act 19 (no result: p-CIP stab down) | R1A FP artifact inactive | PKA-R1A act conf inactive
Cc1[nH]c(=O)[nH]c(=O)c1S(=O)(=O)Nc1ccc(S(N)(=O)=O)cc1	PKA-R1A act 20 | R1A FP artifact inactive | PKA-R1A act conf inactive
Cc1[nH]c(=O)[nH]c(=O)c1S(=O)(=O)NCCc1ccc(S(N)(=O)=O)cc1	none
CCCS(=O)(=O)c1ccc(COC(=O)c2ccc(NC(C)=O)cc2)cc1	PKA-R1A act 22 (no result: Yeast UUG start) | R1A FP artifact inactive | PKA-R1A act conf inactive
CC(=O)Nc1ccc(C(=O)OCc2ccc(Cl)cc2)cc1	none
COC(=O)C1(C)Nc2ccccc2C(=O)N1c1ccccc1OC (stereo not drawn)	PKA-R1A act 23 | R1A FP artifact inactive | PKA-R1A act conf inactive
COC(=O)C1(C)NC(=O)c2ccccc2N1 (stereo not drawn)	none
C[C@@H]1CN([C@H](C)CO)C(=O)Cc2cc(NS(=O)(=O)c3cccs3)ccc2O[C@@H]1CN(C)C(=O)Nc1ccc(C(F)(F)F)cc1	none (no result: p-CIP stab down, Exocytosis inh, ABCB6 inh 2, PKA-R2B act, PKA-R1A act)
CCOc1ccc(NC(=O)CN(C)C(=O)CCNC(=O)c2ccco2)cc1OCC	PKA-R1A act 19 (no result: p-CIP stab down) | R1A FP artifact inactive | PKA-R1A act conf inactive
COc1ccc(C)cc1NC(=O)CO/N=C(\N)CC(=O)Nc1ccccc1OC	PKA-R1A act 20 (no result: p-CIP stab down) | R1A FP artifact inactive | PKA-R1A act conf inactive
COc1ccccc1NC(=O)C/C(N)=N/OCC(=O)Nc1cccc(Cl)c1	none (no result: p-CIP stab down)
CCC(=O)N(C)C[C@H]1Oc2ncc(C#CC(C)(C)O)cc2C(=O)N([C@H](C)CO)C[C@H]1C	none (no result: p-CIP stab down, Exocytosis inh, ABCB6 inh 2, PKA-R2B act, PKA-R1A act)
O=C(CSc1ccc(-c2ccncc2)nn1)N1CCCCC1	PKA-R1A act 19 (no result: Yeast UUG start) | R1A FP artifact inactive | PKA-R1A act conf inactive
O=C(CSc1ccc(-c2ccncc2)nn1)N1CCCC1	none
CC1CC(N(C(=O)c2ccc(Cl)cc2)c2ccccc2)c2ccccc2N1C(=O)c1ccco1 (stereo not drawn)	none
CC1CC(N(C(=O)c2ccco2)c2ccccc2)c2ccccc2N1C(=O)c1ccco1 (stereo not drawn)	PKA-R1A act 19 (no result: Yeast UUG start) | R1A FP artifact inactive | PKA-R1A act conf inactive
NC(=O)C1CCN(C(=O)C(=O)c2cn(CC(=O)N3CCCC3)c3ccccc23)CC1	PKA-R1A act 20 | R1A FP artifact inactive | PKA-R1A act conf inactive
CCN1[C@H](C(=O)NCc2ccccc2)[C@@H](CO)[C@@H]2Cn3c(ccc(-c4ccccc4)c3=O)[C@@H]21	none (no result: p-CIP stab down, Exocytosis inh, ABCB6 inh 2, PKA-R2B act, PKA-R1A act)
CCC(=O)Nc1ccc(C(=O)NNC(=O)COc2cccc(C)c2)cc1	PKA-R1A act 20 (no result: Yeast UUG start) | R1A FP artifact inactive | PKA-R1A act conf inactive
COc1ncnc2c1oc1nc(CC(C)C)c3c(c12)CC(C)(C)OC3	PKA-R1A act 20 | R1A FP artifact inactive | PKA-R1A act conf inactive
Cc1ccc(C(=O)NC2CCCCCCC2)c(Cl)c1	none
Cc1c(Br)cc(C(=O)NC2CCCCC2)c(C)c1C	PKA-R1A act 23 | R1A FP artifact inactive | PKA-R1A act conf inactive
C[C@@H]1CN([C@H](C)CO)C(=O)c2cc(/C=C/c3ccccc3)cnc2O[C@@H]1CN(C)S(=O)(=O)c1cn(C)cn1	none (no result: p-CIP stab down, Exocytosis inh, ABCB6 inh 2, PKA-R2B act, PKA-R1A act)
Cc1ccc(S(=O)(=O)Nc2ccc3c(c2)C(=O)N([C@@H](C)CO)C[C@H](C)[C@@H](CN(C)Cc2ccc4c(c2)OCO4)OCCCC[C@H](C)O3)cc1	none (no result: p-CIP stab down, Exocytosis inh, ABCB6 inh 2, PKA-R2B act, PKA-R1A act)
Cc1ccc2c(c1)C1CN(C)CCC1N2C(=O)COc1ccc(N(C)C(=O)c2ccccc2)cc1 (stereo not drawn)	none (no result: Yeast UUG start)
CCCC(=O)O[C@@H]1C[C@@H](C)N(C(=O)c2ccccc2)c2ccc(C)cc21	ABCB6 inh 2 72 | ABCB6 inh CP1 inactive
